Assay results reported in patent publication US20020183309A1, “Novel amines as histamine-3 receptor ligands and their therapeutic applications” (priority 2001, published 2002).
Where two headings read alike, the source gives them in different places.

The chains behind the UniProt entries cited, without tags or fusion partners. Where a name states a change or a piece, a line headed by the entry shows the natural chain unless it says otherwise.
UniProt Q9QYN8: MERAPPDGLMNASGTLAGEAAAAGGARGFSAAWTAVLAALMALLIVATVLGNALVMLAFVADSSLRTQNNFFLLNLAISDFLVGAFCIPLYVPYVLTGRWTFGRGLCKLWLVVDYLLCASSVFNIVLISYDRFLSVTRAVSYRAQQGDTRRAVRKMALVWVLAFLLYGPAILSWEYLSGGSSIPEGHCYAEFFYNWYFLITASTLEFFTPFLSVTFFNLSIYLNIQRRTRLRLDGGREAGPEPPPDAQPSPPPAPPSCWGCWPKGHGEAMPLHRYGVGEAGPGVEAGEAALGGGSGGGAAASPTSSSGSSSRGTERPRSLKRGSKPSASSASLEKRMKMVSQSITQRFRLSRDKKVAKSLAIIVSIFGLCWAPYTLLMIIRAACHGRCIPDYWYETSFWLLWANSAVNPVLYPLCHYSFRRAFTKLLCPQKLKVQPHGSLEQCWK

Target: T1, histamine-3 receptors (H3 receptor) (Rattus norvegicus, UniProt Q9QYN8)
T1 construct: from tissue; host or cells: male Sprague-Dawley rat brain cortex membranes
Test: (3H)-N-α-methylhistamine binding to rat cortical membranes
Protocol: Briefly, male Sprague-Dawley rat brain cortices were homogenized (1 g tissue/10 mL buffer) in 50 mM Tris-HCl/5 mM EDTA containing protease inhibitor cocktail (Calbiochem) using a polytron set at 20,500 rpm. Homogenates were centrifuged for 20 minutes at 40,000×g. The supernatant was decanted, and pellets were weighed. The pellet was resuspended by polytron homogenization in 40 mL 50 mM Tris-HCl/5 mM EDTA with protease inhibitors and centrifuged for 20 minutes at 40,000×g. […] Rat cortical membranes (12 mg wet weight/tube) were incubated with (^3H)-N-α-methylhistamine (˜0.6 nM) with or without H3 receptor antagonists in a total incubation volume of 0.5 mL of 50 mM Tris-HCl/5 mM EDTA (pH 7.7). Test compounds were dissolved in DMSO to provide a 20 mM solution, serially diluted and then added to the incubation mixtures prior to initiating the incubation assay by addition of the membranes. Thioperamide (3 μM) was used to determine nonspecific binding. Binding incubations were conducted for 30 minutes at 25° C. and terminated by addition of 2 mL of ice cold 50 mM Tris-HCl (pH 7.7) and filtration through 0.3% polyethylenimine-soaked Unifilter plates (Packard). These filters were washed 4 additional times with 2 mL of ice-cold 50 mM Tris-HCl and dried for 1 hour. Radioactivity was determined using liquid scintillation counting techniques. Results were analyzed by Hill transformation and Ki values were determined using the Cheng-Prusoff equation.

[1] = male Sprague-Dawley rat brain cortical membranes, (3H)-N-α-methylhistamine ~0.6 nM, 30 minutes at 25° C., Cheng-Prusoff equation, read-out: Ki

SMILES | Ki [1] [nM] | Ki [nM]
C[C@@H]1CCCN1CCc1cc2cc(-c3ccc(C#N)cc3)ccc2o1 [Example 1, 4-(2-{2-[(2R)-2-methylpyrrolidinyl]ethyl}-1-benzofuran-5-yl)benzonitrile] |  | 4.44
CC1CCCN1CCc1cc2cc(-c3ccc(C#N)cc3)ccc2o1 (stereo not drawn) [Example 3, 4-{2-[2-(2-methyl-1-pyrrolidinyl)ethyl]-1-benzofuran-5-yl}benzonitrile] |  | 7.45
N#Cc1ccc(-c2ccc3oc(CCn4ccnc4)cc3c2)cc1 [Example 8, 4-{2-[2-(1H-imidazol1--yl)ethyl]-1-benzofuran-5-yl}benzonitrile] | 2000 | 
N#Cc1ccc(-c2ccc3oc(CCN4CCC[C@H]4CO)cc3c2)cc1 [Example 10, 4-(2-{2-[(2S)-2-(hydroxymethyl)pyrrolidinyl]ethyl}-1-benzofuran-5-yl)benzonitrile] | 22.9 | 
N#Cc1ccc(-c2ccc3oc(CCN4CCCCCC4)cc3c2)cc1 [Example 13, 4-{2-[2-(1-azepanyl)ethyl]-1-benzofuran-5-yl}benzonitrile] | 78.4 | 
C[C@@H]1CC[C@@H](C)N1CCc1cc2cc(-c3ccc(C(=O)N4CCOCC4)cc3)ccc2o1 [Example 28, 4-[4-(2-{2-[(2R,5R)-2,5-dimethylpyrrolidinyl]ethyl}-1-benzofuran-5-yl)benzoyl]morpholine] | 9.24 | 
O=C(c1ccc(-c2ccc3oc(CCN4CCCCCC4)cc3c2)cc1)N1CCOCC1 [Example 30, 4-(4-{2-[2-(azepane)ethyl]-1-benzofuran-5-yl}benzoyl)morpholine] | 13.7 | 
CC1CCN(CCc2cc3cc(-c4ccc(C(=O)N5CCOCC5)cc4)ccc3o2)CC1 [Example 31, 4-(4-{2-[2-(4-methyl-1-piperidinyl)ethyl]-1-benzofuran-5-yl}benzoyl)morpholine] | 24.6 | 
O=C(c1ccc(-c2ccc3oc(CCN4CC[C@@H](O)C4)cc3c2)nc1)N1CCOCC1 [Example 48, (3R)-1-(2-{5-[5-(4-morpholinylcarbonyl)-2-pyridinyl]-1-benzofuran-2-yl}ethyl)-3-pyrrolidinol] | 30.8 | 
C[C@@H]1CCCN1CCc1cc2cc(C(=O)c3cccc(F)c3)ccc2o1 [Example 69, (3-fluorophenyl)(2-{2-[(2R)-2-methyl-1-pyrrolidinyl]ethyl}-1-benzofuran-5-yl)methanone] | 0.6 | 

More lines, main results first:

Ki [1] [nM] | SMILES | Ki [nM]
2.1 | C[C@@H]1CCCN1CCc1cc2cc(C(=O)c3ccccc3F)ccc2o1 [Example 70, (2-fluorophenyl)(2-{2-[(2R)-2-methyl-1-pyrrolidinyl]ethyl}-1-benzofuran-5-yl)methanone] | 
2.7 | C[C@@H]1CCCN1CCc1cc2cc(C(=O)c3ccc(Cl)cc3)ccc2o1 [Example 72, (4-chlorophenyl)(2-{2-[(2R)-2-methyl-1-pyrrolidinyl]ethyl}-1-benzofuran-5-yl)methanone] | 
3.5 | Cc1cc(C(=O)c2ccc3oc(CCN4CCC[C@H]4C)cc3c2)ccc1F [Example 74, (4-fluoro-3-methylphenyl)(2-{2-[(2R)-2-methyl-1-pyrrolidinyl]ethyl}-1-benzofuran-5-yl)methanone] | 
1.4 | Cc1ccc(C(=O)c2ccc3oc(CCN4CCC[C@H]4C)cc3c2)cc1 [Example 80, (4-methylphenyl)(2-{2-[(2R)-2-methyl-1-pyrrolidinyl]ethyl}-1-benzofuran-5-yl)methanone] | 
1.4 | C[C@@H]1CCCN1CCc1cc2cc(C(=O)c3cc(F)cc(F)c3)ccc2o1 [Example 81, (3,5-difluorophenyl)(2-{2-[(2R)-2-methyl-1-pyrrolidinyl]ethyl}-1-benzofuran-5-yl)methanone] | 
